The source of these data is patent publication US9867805B2 (dated 2018).

The chains behind the UniProt entries cited, without tags or fusion partners. Residues count along the entry.
UniProt P14780, 107-707 limits assumed: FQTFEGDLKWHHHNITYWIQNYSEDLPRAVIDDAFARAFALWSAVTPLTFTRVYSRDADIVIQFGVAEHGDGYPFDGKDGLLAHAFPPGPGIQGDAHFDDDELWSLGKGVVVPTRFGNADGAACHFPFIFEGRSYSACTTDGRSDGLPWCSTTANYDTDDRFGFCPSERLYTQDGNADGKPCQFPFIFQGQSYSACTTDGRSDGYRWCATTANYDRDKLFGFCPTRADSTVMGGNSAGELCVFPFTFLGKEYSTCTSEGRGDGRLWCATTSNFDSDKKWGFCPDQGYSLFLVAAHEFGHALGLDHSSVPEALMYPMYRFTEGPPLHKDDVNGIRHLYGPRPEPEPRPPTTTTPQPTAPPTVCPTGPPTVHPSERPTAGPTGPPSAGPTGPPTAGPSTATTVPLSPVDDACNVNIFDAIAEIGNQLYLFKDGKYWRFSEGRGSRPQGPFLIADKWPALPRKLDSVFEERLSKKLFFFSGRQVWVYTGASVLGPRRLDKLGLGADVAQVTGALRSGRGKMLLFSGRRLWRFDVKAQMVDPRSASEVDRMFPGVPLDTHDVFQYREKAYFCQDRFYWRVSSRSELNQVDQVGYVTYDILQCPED

Common to all, as to test: biochemical
Test [1] has as its target T1, MMP-7 (Homo sapiens, UniProt P09237).
T1 sequence (P09237 95-267): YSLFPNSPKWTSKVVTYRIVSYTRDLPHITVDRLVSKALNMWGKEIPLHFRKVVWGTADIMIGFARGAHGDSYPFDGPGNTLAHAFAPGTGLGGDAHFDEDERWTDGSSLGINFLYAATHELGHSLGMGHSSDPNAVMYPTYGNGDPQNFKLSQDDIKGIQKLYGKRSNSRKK

The target in test [2] is MMP-14 (Homo sapiens, UniProt P50281).
In test [3] the target is human MMP-9 (Homo sapiens, UniProt P14780).
Test [4] concerns the target T2, human MMP-2 (Homo sapiens, UniProt P08253).
T2 sequence (P08253 110-660): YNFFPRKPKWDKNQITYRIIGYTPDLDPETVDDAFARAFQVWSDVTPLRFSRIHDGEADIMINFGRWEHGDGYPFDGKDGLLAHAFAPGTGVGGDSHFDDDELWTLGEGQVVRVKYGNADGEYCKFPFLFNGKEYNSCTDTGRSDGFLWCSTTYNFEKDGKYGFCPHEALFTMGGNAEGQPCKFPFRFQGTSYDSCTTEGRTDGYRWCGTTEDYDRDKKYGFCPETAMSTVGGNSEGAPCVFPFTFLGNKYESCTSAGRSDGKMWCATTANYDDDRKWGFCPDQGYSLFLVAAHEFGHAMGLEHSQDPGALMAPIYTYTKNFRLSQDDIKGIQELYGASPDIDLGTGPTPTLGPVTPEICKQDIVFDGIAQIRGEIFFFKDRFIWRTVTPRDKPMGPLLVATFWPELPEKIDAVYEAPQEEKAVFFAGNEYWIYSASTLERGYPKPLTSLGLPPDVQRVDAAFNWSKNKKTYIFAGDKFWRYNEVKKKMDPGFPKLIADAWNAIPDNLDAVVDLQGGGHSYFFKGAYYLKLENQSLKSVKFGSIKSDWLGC

One may read the Ki as a dissociation constant, usually derived from enzyme kinetics or from competition with a known ligand.

Each structure is given as a SMILES string.

`N=C(N)NCCCC(N)C(=O)Nc1ccc(Oc2ccc(S(=O)(=O)CC3CS3)cc2)cc1` (stereo not shown) [Compound 11d]: the results for the Ki in test [1] and in test [2] were 160 ± 14 µM and 28.9 ± 2.3 µM, respectively.

Turning to `N=C(N)NCCCC(N)C(=O)NC(CCCNC(=N)N)C(=O)Nc1ccc(Oc2ccc(S(=O)(=O)CC3CS3)cc2)cc1` (stereo not shown) [Compound 11e], the inhibition constant (Ki) in test [3] is 18.7 ± 5.6 µM; in test [4], 0.42 ± 0.15 µM.
